Biological target: T1, human melanocortin receptor 4 (hMCR4) (Homo sapiens, UniProt P32245)
T1 construct: expressed in transfected cells; host or cells: Saccharomyces cerevisiae CY9438 (wild type) and CY12201 (stp22), co-expressing rat GαsD229S
Test: FUS1-lacZ β-galactosidase induction assay in yeast expressing hMCR4
Format: cell-based
Conditions: native hMCR4, stp22 mutant vs wild type

Protein sequences, listed by entry. Tags and fused reporters are not part of them.
UniProt P32245, whole entry: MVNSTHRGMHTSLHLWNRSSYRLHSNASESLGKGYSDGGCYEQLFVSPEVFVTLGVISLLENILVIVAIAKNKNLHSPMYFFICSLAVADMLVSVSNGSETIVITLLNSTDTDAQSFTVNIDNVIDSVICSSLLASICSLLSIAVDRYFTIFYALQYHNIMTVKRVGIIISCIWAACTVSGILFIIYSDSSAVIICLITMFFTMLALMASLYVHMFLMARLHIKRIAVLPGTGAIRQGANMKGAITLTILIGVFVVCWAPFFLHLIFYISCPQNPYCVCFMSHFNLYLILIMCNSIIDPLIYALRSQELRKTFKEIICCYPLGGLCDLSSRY

NDP-α-MSH
change of EC50 value, stp22 versus wild type: several-fold decrease
increase of specific ligand-induced levels of β-galactosidase activity, stp22 versus wild type (rat GαsD229S): approximately 2 fold
